This note sets out measurements from patent US9447106B2, “Substituted pyrazolo[1,5-a]pyrimidines as bruton's tyrosine kinase modulators” (Beigene, Ltd., priority 2013, dated 2016).

By UniProt entry, the sequences of proteins in these tests, tags left out. Where a name states a change or a piece, a line headed by the entry shows the natural chain unless it says otherwise.
UniProt Q06187: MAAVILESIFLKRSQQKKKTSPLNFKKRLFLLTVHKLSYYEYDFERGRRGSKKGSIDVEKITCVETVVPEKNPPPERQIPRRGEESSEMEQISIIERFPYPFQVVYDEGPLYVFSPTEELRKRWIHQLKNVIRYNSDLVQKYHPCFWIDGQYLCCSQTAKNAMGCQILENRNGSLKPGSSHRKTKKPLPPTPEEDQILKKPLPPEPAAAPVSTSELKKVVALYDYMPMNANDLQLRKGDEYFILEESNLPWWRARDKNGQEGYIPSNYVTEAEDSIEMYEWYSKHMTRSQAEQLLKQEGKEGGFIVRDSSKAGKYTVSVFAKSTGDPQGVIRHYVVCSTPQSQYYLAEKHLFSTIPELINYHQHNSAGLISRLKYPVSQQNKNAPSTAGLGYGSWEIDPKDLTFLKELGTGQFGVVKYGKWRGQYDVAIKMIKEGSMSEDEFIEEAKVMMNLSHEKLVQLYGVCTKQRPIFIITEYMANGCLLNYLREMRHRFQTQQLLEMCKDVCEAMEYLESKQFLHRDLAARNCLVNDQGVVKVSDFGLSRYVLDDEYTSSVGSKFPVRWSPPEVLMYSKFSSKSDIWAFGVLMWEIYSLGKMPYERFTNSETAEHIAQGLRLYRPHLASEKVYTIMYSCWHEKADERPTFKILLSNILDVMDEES

Each structure is given as a SMILES string.

Assay [1] concerns the target phosphorylated Btk at Tyr223 in Ramos cells (Homo sapiens (Human), UniProt Q06187). In words: Btk pY223 cellular assay (HTRF) in Ramos cells. The class given is cell-based. The following applies: 1 hour compound incubation, pervanadate or Na3VO4 stimulation.
In assay [2] the target is Recombinant Btk (Homo sapiens (Human), UniProt Q06187). Kind of assay: Btk kinase assay (TR-FRET). The following applies: IC50 (nM) Btk, 1 hour pre-incubation, ATP at Km. (In general: In TR-FRET formats the signal depends on donor and acceptor labels being close together.)

As a reminder, the IC50 is the concentration that gives 50% inhibition. `C=CC(=O)Nc1ccccc1C1CCNc2c(C(N)=O)c(-c3ccc(C)c(OC)c3)nn21` (single isomer, unassigned) [Compound 133a, (R or S) 7-(2-acrylamidophenyl)-2-(3-methoxy-4-methylphenyl)-4,5,6,7-tetrahydropyrazolo[1,5-a]pyrimidine-3-carboxamide]: inhibition in assay [1] was half-maximal at 2.9 nM (IC50).
For `N#C/C=C/CN1CCc2[nH]c3c(C(N)=O)c(-c4ccc(Oc5ccccc5)cc4)nn3c2C1` [Compound 59, (E)-7-(3-Cyanoallyl)-2-(4-phenoxyphenyl)-5,6,7,8-tetrahydro-4H-pyrazolo[5′,1′:2,3]imidazo[4,5-c]pyridine-3-carboxamide], the IC50 in assay [2] came out at 43 nM.
The compound `C=CC(=O)Nc1ccccc1C1CCNc2c(C(N)=O)c(-c3ccc(C)c(OC)c3)nn21` (stereo not drawn) [Compound 133, 7-(2-acrylamidophenyl)-2-(3-methoxy-4-methylphenyl)-4,5,6,7-tetrahydropyrazolo[1,5-a]pyrimidine-3-carboxamide] came in with an IC50 in assay [1] of 1.8 nM.
